Measurements taken from patent US20100008928A1 (Takeda / Millennium, published 2010).
Residue numbers refer to the chain shown, from its start. Read-outs that look alike come from different tables or passages of the source. Each block holds one binder with its values, some of them ahead of it.

The chains behind the UniProt entries cited, without tags or fusion partners. Residues count along the entry.
UniProt Q9NQS3, 58-549 limits assumed: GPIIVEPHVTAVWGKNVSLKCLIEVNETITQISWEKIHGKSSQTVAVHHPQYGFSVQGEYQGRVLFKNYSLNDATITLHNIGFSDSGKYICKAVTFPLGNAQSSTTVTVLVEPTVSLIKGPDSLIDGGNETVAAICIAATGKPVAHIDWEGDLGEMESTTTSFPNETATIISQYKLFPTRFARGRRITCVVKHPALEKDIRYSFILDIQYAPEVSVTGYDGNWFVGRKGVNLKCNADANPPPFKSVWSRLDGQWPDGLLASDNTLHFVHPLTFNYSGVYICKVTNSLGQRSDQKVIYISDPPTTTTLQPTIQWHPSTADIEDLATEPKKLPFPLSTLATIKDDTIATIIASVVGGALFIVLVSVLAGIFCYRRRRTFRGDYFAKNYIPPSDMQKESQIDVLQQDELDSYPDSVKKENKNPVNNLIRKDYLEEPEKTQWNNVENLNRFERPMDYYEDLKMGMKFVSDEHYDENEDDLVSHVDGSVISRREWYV

Experiments:
Assay in all cases: FCM
[1] = target: T1, nectin-2 Ig2 domain-deficient protein (human, UniProt Q92692 32-538)
T1 construct: transient in CHO-K1; also called delta-Ig2; Nectin-2ΔIg2
T1 sequence: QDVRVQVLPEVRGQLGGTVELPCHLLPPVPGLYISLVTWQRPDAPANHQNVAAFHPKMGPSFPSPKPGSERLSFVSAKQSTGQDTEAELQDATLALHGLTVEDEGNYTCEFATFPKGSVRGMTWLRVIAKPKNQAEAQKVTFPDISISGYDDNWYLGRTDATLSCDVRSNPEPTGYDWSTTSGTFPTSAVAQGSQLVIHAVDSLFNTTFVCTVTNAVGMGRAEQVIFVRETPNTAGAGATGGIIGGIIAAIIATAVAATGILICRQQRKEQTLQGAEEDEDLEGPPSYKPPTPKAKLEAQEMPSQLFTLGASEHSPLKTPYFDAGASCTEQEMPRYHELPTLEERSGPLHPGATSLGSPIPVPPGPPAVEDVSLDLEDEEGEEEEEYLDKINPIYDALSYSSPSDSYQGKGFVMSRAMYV

[2] = target: T1, nectin-2 Ig2 domain-deficient protein; remark: listed apart in the source
human nectin-3 protein [3] = target: T2, human nectin-3 protein (human, UniProt Q9NQS3 58-549)
T2 construct: transient in CHO-K1 from pCMV-Tag4-Nectin-3

human nectin-4 protein = target: T3, human nectin-4 protein (human, UniProt Q96NY8 32-510)
T3 construct: transient in CHO-K1 from pCMV-Tag4-Nectin-4
T3 sequence: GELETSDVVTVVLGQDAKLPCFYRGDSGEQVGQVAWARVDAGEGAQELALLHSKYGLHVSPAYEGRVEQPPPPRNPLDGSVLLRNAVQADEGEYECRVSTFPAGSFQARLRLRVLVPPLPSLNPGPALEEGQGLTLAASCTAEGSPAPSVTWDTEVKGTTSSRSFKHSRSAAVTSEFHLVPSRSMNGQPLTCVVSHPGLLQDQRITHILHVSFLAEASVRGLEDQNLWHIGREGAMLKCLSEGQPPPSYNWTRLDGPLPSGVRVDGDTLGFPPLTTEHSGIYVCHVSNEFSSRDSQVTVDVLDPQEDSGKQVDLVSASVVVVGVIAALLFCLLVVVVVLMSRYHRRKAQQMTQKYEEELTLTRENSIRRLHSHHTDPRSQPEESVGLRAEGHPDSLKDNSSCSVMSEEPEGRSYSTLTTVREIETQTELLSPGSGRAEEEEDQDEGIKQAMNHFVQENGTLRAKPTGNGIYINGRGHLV

human nectin-3 protein [4] = target: T2, human nectin-3 protein; remark: listed apart in the source
human nectin-1 protein = target: T4, human nectin-1 protein (human, UniProt Q15223 31-517)
T4 construct: transient in CHO-K1 from pCMV-Tag4-Nectin-1
T4 sequence: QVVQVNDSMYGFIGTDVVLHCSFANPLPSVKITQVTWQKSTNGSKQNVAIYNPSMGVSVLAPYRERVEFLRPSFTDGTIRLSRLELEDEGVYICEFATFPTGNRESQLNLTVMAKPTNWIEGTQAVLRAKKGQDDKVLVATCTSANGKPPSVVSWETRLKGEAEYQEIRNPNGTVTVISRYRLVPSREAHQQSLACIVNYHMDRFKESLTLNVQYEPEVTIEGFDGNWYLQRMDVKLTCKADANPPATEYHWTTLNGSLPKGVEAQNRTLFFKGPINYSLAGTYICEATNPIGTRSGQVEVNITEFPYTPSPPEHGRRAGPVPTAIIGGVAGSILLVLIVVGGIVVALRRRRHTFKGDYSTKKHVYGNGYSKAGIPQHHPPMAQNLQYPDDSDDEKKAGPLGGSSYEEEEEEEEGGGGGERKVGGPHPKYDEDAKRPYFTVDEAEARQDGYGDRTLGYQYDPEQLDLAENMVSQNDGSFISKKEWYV

human Nec1-5 protein = target: T5, human Nec1-5 protein (human, UniProt P15151 21-417)
T5 construct: transient in CHO-K1 from pCMV-Tag4-Nec1-5; also called Necl-5
T5 sequence: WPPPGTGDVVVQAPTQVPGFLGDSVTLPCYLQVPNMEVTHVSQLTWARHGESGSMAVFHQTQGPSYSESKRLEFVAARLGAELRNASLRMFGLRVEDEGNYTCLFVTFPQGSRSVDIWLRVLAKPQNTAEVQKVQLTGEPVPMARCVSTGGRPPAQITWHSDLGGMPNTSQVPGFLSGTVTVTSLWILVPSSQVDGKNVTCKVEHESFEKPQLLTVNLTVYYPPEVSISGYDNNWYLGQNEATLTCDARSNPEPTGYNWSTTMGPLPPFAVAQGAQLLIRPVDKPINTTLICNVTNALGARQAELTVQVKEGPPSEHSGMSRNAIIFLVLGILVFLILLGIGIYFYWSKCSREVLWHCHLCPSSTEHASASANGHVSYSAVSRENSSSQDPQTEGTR

median fluorescence ratio [1]: 5.3 | median fluorescence ratio [2]: 6.2 | binding result (human nectin-3 protein [3]): no binding (tested: 6 µg/mL) | median fluorescence ratio (human nectin-4 protein): 1.1 | median fluorescence ratio (human nectin-3 protein [4]): 1.2 | median fluorescence ratio (human nectin-1 protein): 1.2 | median fluorescence ratio (human Nec1-5 protein): 1.1
B1: Nec1-803-2 (antibody, human IgG1, V domains shown)
VH: QVQLQESGPGLVKPSETLSLTCTVSGGSISSYYWTWIRQPPGKGLEWIGYIYYSGSTNSNPSLKSRVTISVDTSKNQFSLKLSSVTAADTAVYYCTRDPGEDYNYGMDVWGQGTTVTVSS
VL: AIQLTQSPSSLSASVGDRVTITCRASQGISSALAWYQQKPGKAPKLLIYDASSLESGVPSRFSGSGSGTDFTLTISSLQPEDFATYYCQQFNSYPRTFGQGTKVEIK

binding result (human nectin-3 protein [3]): no binding (tested: 6 µg/mL) | median fluorescence ratio (human nectin-4 protein): 1.1 | median fluorescence ratio (human nectin-3 protein [4]): 1.2 | median fluorescence ratio (human nectin-1 protein): 1.2 | median fluorescence ratio (human Nec1-5 protein): 1
B2: Nec1-834-1 (antibody, human IgG1, V domains shown)
VH: B1 VH with G26S, G27A, T35S, S59Y, V71I, T96A, P99A, N104S
VL: AIQLTQSPSSLSASVGDRVTITCRASQGISSALAWYQQKPGKAPKLLIYDASSLESGVPSRFSGSGSGTDFTLTISSLQPEDFATYYCQQFNSYRTFGQGTKVEIK
notes: human IgG1/k from hybridoma FERM BP-10428
